From US20040110821A1, “GAL3 receptor antagonists for the treatment of affective disorders” (priority 2002, published 2004)

Amino acid sequences for entries named in this document (tags omitted). Residues count along the entry.
UniProt O60755, whole entry: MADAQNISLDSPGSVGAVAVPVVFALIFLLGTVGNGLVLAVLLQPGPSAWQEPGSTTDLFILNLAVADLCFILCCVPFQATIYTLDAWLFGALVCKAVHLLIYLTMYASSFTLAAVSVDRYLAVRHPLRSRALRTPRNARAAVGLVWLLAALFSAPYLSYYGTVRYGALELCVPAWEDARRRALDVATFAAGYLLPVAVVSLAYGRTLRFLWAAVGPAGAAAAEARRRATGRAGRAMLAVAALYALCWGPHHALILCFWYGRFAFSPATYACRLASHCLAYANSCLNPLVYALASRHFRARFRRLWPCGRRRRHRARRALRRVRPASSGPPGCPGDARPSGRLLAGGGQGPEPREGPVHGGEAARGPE
UniProt Q63380, 1-617: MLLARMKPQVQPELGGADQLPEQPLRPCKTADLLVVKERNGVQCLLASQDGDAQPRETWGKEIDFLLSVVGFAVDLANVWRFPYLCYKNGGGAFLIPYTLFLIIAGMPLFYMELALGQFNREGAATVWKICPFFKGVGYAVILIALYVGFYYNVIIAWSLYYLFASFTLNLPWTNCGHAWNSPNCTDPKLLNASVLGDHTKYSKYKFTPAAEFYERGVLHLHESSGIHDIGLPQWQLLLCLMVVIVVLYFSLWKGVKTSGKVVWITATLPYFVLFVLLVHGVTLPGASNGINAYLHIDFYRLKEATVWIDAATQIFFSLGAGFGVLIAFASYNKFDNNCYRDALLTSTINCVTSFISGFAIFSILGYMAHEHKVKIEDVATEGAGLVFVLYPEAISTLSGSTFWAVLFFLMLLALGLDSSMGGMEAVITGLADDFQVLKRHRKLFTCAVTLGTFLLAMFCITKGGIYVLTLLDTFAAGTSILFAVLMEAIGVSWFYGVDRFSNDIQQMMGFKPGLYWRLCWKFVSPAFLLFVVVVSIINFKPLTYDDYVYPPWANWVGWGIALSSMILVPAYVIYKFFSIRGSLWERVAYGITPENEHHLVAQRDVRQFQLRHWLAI

Key:
human GAL3 receptor = human GAL3 receptor (Homo sapiens, UniProt O60755); experiment: Radioligand binding at cloned human GAL3 receptor; conditions: Ki at hGAL3 divided by Ki at human GAL3
Protocol: The present invention provides for a method of determining the binding affinity of a GAL3 antagonist, wherein the GAL3 antagonist is dissolved in a “suitable solvent”. A “suitable solvent” means one which permits the measurement of binding affinity of the GAL3 antagonist to the human GAL3 receptor at concentrations less than 1 μM, preferably less than 100 nM. Examples of solvents include, but are not limited to, DMSO, ethanol, N,N-dimethylacetamide, or water. For indolones, the preferred solvent is 3% DMSO (final concentration in the assay). For pyrimidines, the preferred solvent is 1% ethanol/0.09% polypuronic acid F-127 (final concentration in the assay). […]
The binding properties of the pyrimidines of the present invention were evaluated at the cloned human galanin receptors, GAL1, GAL2, and GAL3, using protocols described herein.
The binding properties of the indolones of the present invention were evaluated at the cloned human galanin receptors, GAL1, GAL2, and GAL3, using protocols described herein. […]
Membranes were harvested from stably transfected LM(tk-) cells. […] Protein concentration was measured by the Bradford method (Bradford, 1976) using Bio-Rad Reagent, with bovine serum albumin as a standard. […]
Binding data were analyzed using nonlinear regression and statistical techniques available in the GraphPAD Prism package (San Diego, Calif.). […]

Male Sprague-Dawley rats = experiment: Rat Forced Swim Test (FST); conditions: for Climbing / Diving / Immobility / Swimming: single administration 1 hr before 5 min test
NE transporter = NE transporter (Rattus norvegicus, UniProt Q63380); experiment: Binding at native NE transporter; conditions: read-out: rNE Uptk Ki
Protocol: The methods to determine binding affinity at native transporters are described in the following publications: 5HT transporter and NE transporter (Owens et al., 1997), and DA transporter (Javitch et al, 1984).
Binding data were analyzed using nonlinear regression and statistical techniques available in the GraphPAD Prism package (San Diego, Calif.). Enzymatic assay data were derived from a standard curve of reference compound data.

Question: Which results are given for `COC[C@@H]1[C@@H](c2ccccc2)OCCN1c1nc(Nc2ccc(C)cc2)cc(N2CCCCC2)n1`?
Answer: selectivity ratio hGAL3 (human GAL3 receptor; Table 8): 1; selectivity ratio hGAL3 (human GAL3 receptor; Table 10): 1; Climbing (Male Sprague-Dawley rats; 3 mg/kg p.o.): no significant difference in the number of climbing counts; Diving (Male Sprague-Dawley rats; 3 mg/kg p.o.): not significantly altered; Immobility (Male Sprague-Dawley rats; 3 mg/kg p.o.): did not significantly alter immobility; Swimming (Male Sprague-Dawley rats; 3 mg/kg p.o.): did not significantly alter swimming behavior; Climbing (Male Sprague-Dawley rats; 10 mg/kg p.o.): no significant difference in the number of climbing counts; Diving (Male Sprague-Dawley rats; 10 mg/kg p.o.): not significantly altered; Immobility (Male Sprague-Dawley rats; 10 mg/kg p.o.): did not significantly alter immobility; Swimming (Male Sprague-Dawley rats; 10 mg/kg p.o.): did not significantly alter swimming behavior; Diving (Male Sprague-Dawley rats; 10 mg/kg p.o., listed as EX49): 0.0 ± 0.0 counts; Climbing (Male Sprague-Dawley rats; 30 mg/kg p.o.): no significant difference in the number of climbing counts; Diving (Male Sprague-Dawley rats; 30 mg/kg p.o.): not significantly altered; Immobility (Male Sprague-Dawley rats; 30 mg/kg p.o.): significant decrease in immobility; Swimming (Male Sprague-Dawley rats; 30 mg/kg p.o.): significantly greater increase in swimming behavior; overall profile in the Forced Swim Test (conclusion in words) (Male Sprague-Dawley rats; rat, in vivo): may have antidepressant-like properties in this model; Ki (NE transporter): 37.6 µM
